## Measured affinities in a library of Ab-91 heavy chain variants

All variants were tested on one target, the spike HR2 peptide PDVDLGDISGINAS (SARS-CoV-2).

Parent: Ab-91, a human scFv built as VL, a (GGGGS)3 linker, VH. Only the CDRs of the heavy chain vary.
VL: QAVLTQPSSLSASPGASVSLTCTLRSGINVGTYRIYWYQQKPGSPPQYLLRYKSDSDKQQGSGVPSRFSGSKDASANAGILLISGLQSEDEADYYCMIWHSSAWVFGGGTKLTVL
VH: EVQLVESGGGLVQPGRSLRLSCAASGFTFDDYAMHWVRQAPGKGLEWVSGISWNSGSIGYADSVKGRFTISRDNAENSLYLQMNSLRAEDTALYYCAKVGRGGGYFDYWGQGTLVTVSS

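AAYL51 was designed without a model: most single CDR substitutions and a random sample of double and triple ones. Affinity was read by AlphaSeq, a pooled yeast mating assay with surface-displayed partners. Pairs that bind mate more often; barcode pairs of the diploids are counted by sequencing. Read counts were normalised to the haploid input and turned into Kd by a linear fit to BCL2-family pairs of known affinity, for each replicate. Each pool was mated in three replicate cultures.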

Substitutions are numbered in sequence along the VH above, starting at 1 (not Kabat). Scale: log10 of Kd in nM, estimated from mating counts; low values are strong binders. "nd" marks a missing value. The strain was present, yet no cells mated with the target were sequenced in that replicate, which points to weak or no binding. In this assay the parent's reference entry averaged 1.86; its copy inside this library read 0.88.

| # | changes | log10 Kd (nM) by replicate | signal with controls |
|---|---|---|---|
| 1 | F29D+A61I+Y108S | nd nd nd | 1 of 9 (3.45) |
| 2 | F27S+G104K | 5.94 nd nd | 2 of 9 (5.06) |
| 3 | D30H+D31Y+V99T | 5.02 4.43 3.61 | 0 of 9 |
| 4 | G26M+T28M+G104R | nd nd nd | 1 of 9 (3.61) |
| 5 | D30G+A61H+G102D | 2.67 2.00 3.44 | 0 of 9 |
| 6 | Y32V+M34F+G103C | 3.77 4.60 4.54 | 5 of 9 (4.58) |
| 7 | G50M+N54T | nd nd nd | 2 of 9 (3.21) |
| 8 | D62R+K65T+D107E | nd nd nd | 2 of 9 (3.29) |
| 9 | H35F | nd nd nd | 0 of 9 |
| 10 | S55Q+A61D+K65Y | 3.92 4.47 nd | 0 of 9 |
| 11 | M34R+W53R+G104E | nd nd nd | 1 of 9 (4.83) |
| 12 | N54T+K65G+F106W | nd nd nd | 2 of 9 (3.52) |
| 13 | D31T+S55I+V64P | nd nd nd | 0 of 9 |
| 14 | G50I+I51A+Y108G | 5.10 5.04 4.83 | 7 of 9 (5.22) |
| 15 | D30R+D62L+G100V | 2.74 2.57 2.46 | 1 of 9 (4.27) |
| 16 | S63C+V64K+G103C | nd nd 3.95 | 1 of 9 (3.59) |
| 17 | S52A+W53E+G56V | nd 4.42 nd | 1 of 9 (4.07) |
| 18 | I58V+Y105N+D107S | 4.11 5.03 5.51 | 9 of 9 (4.69) |
| 19 | D31V+W53P+G59D | nd 3.76 nd | 0 of 9 |
| 20 | G26E+G50M+S57F | nd nd nd | 2 of 9 (4.74) |
| 21 | D62C+V99Y+G100F | 4.14 6.01 nd | 0 of 9 |
| 22 | S63I | 4.85 nd nd | 3 of 9 (4.52) |
| 23 | S52E+Y108C | 5.94 4.36 5.36 | 3 of 9 (5.28) |
| 24 | F29G+I58S+G103I | nd nd nd | 0 of 9 |
| 25 | K65W+G102C+Y105T | nd nd nd | 0 of 9 |
| 26 | F27Q+F29D+G102P | nd nd nd | 1 of 9 (3.77) |
| 27 | H35Q+I51C+S52R | 4.48 4.99 nd | 4 of 9 (4.49) |
| 28 | F29W+K65G+Y105M | nd nd nd | 0 of 9 |
| 29 | F29W+N54R+F106M | 3.91 2.55 nd | 0 of 9 |
| 30 | I58M+A61R+V64K | nd nd nd | 1 of 9 (3.68) |
| 31 | I58K+R101W+Y108V | 2.26 2.33 2.83 | 8 of 9 (4.61) |
| 32 | D30E+W53A+V64K | 1.79 2.09 1.66 | 0 of 9 |
| 33 | G59P+K65V+G103Y | 3.76 nd nd | 6 of 9 (5.45) |
| 34 | I51R+G56Y+R101K | 4.47 5.69 nd | 5 of 9 (4.85) |
| 35 | S55M+G56R+Y105P | 6.09 nd nd | 2 of 9 (4.48) |
| 36 | F29G+S57K+R101W | 5.00 6.17 nd | 4 of 9 (4.65) |
| 37 | T28C+S55P+A61F | nd nd nd | 0 of 9 |
| 38 | G26L+G102Y+G104Y | 5.42 4.71 nd | 3 of 9 (4.65) |
| 39 | S63I+G100L+Y105W | 4.54 nd nd | 0 of 9 |
| 40 | G103Y | 4.40 4.33 4.20 | 4 of 9 (4.72) |
| 41 | T28W+W53Q+G100C | 3.11 2.83 2.66 | 6 of 9 (4.87) |

The first 6 variants above that were never detected:

changes,log10 Kd (nM) by replicate,signal with controls
F29D+A61I+Y108S,nd nd nd,1 of 9 (3.45)
G26M+T28M+G104R,nd nd nd,1 of 9 (3.61)
G50M+N54T,nd nd nd,2 of 9 (3.21)
D62R+K65T+D107E,nd nd nd,2 of 9 (3.29)
H35F,nd nd nd,0 of 9
M34R+W53R+G104E,nd nd nd,1 of 9 (4.83)

Background: pairings of library AAYL51 with three empty control strains gave a value in 21% of cases (median 4.54, 5th percentile 3.26). Values in that range, when seen in few replicates, are hard to tell from nonspecific mating. The control count says in how many pairings with the empty strains this scFv gave a signal, with their mean in brackets.

Values reported by Engelhart et al. 2022, doi:10.1038/s41597-022-01779-4 (FLAb copy).